Experimental findings from patent publication US20240158370A1, “CK1 alpha AND DUAL CK1 alpha / GSPT1 DEGRADING COMPOUNDS” (Innovo Therapeutics, Inc., priority 2022, published 2024) are described below.

Protein sequences, listed by entry. Tags and fused reporters are not part of them.
UniProt P48729, whole entry: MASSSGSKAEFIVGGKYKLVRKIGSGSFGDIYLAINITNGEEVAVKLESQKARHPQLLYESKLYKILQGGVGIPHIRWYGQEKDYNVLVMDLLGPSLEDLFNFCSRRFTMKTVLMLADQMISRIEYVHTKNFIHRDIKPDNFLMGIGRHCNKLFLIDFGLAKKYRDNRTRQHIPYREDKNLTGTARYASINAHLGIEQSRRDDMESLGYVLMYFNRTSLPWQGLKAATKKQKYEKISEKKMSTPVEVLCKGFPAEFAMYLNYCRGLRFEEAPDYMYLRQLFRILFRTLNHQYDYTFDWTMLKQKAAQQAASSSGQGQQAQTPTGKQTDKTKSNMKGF
UniProt Q96SW2, whole entry: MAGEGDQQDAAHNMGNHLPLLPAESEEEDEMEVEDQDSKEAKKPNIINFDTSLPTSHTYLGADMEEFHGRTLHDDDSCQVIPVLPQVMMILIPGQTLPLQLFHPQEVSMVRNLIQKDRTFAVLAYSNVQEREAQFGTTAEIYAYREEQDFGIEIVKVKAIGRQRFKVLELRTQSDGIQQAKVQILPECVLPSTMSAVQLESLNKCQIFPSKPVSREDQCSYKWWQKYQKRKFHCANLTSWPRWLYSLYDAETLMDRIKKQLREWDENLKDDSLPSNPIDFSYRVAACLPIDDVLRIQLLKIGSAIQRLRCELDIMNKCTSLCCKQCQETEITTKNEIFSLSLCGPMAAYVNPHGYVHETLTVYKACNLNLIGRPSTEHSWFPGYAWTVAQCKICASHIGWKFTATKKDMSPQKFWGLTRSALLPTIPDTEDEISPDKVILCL
UniProt P15170, whole entry: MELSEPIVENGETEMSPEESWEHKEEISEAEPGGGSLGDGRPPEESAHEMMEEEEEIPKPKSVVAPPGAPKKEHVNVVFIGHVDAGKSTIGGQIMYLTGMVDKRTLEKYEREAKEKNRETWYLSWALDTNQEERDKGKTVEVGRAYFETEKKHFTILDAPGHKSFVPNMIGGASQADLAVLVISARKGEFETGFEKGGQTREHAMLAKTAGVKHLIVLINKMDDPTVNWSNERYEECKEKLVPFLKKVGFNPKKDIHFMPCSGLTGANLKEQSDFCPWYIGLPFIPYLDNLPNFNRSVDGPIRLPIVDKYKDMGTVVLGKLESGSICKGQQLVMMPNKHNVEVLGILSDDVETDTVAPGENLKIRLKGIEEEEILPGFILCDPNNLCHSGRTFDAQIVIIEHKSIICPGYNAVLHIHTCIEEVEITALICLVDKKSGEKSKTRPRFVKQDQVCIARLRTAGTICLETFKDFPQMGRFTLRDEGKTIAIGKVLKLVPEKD
UniProt Q16531, whole entry partner: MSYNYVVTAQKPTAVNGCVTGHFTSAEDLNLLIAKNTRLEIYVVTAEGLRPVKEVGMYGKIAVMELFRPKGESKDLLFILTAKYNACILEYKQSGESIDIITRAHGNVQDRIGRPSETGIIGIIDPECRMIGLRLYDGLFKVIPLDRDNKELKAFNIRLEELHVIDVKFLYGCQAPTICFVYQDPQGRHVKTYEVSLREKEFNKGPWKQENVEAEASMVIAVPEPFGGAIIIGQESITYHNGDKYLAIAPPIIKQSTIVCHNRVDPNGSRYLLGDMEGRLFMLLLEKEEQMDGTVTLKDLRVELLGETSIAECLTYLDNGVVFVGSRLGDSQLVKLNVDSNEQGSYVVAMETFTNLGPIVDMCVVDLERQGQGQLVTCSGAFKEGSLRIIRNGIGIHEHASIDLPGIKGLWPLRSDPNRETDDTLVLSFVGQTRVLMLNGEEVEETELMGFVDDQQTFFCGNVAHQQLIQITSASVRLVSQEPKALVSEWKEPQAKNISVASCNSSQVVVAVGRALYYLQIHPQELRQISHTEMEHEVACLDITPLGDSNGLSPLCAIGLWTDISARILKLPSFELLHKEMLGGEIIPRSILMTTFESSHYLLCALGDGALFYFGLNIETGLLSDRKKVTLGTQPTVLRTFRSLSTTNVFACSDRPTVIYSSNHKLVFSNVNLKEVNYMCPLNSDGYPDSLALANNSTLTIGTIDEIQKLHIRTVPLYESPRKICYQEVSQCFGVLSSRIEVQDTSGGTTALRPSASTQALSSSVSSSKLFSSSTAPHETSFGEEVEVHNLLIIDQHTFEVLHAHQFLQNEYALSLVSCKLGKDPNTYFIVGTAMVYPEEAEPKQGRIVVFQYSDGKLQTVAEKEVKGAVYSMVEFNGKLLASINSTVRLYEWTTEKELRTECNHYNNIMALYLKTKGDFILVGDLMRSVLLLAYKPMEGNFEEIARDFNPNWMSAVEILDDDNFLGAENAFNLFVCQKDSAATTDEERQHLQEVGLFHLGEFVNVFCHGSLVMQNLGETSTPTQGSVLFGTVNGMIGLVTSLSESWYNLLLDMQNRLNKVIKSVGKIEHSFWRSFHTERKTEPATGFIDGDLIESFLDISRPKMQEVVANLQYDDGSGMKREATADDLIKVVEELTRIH

For one test, the target named is CK1α (Homo sapiens, UniProt P48729+Q96SW2). The test can be described thus: HiBiT degradation assay, CK1α, Procedure A. To be noted: for DC50: read-out: CK1α DC50, six hours incubation; for CK1α Ymin: six hours incubation.
A further test addresses GSPT1 (Homo sapiens, UniProt P15170+Q96SW2). The test can be described thus: HiBiT degradation assay, GSPT1, Procedure A. To be noted: for DC50: read-out: GSPT1 DC50, six hours incubation; for GSPT1 Ymin: six hours incubation. (With HiBiT, luminescence reflects the tagged protein that the partner subunit can reach.)

SMILES strings stand for the structures. Some results are limits rather than exact numbers.

A word on the DC50: it is the midpoint of the concentration-degradation curve. In the case of `Cn1c(-c2ccc3c(c2)CN(C2CCC(=O)NC2=O)C3=O)cnc1C1CCCCC1` (stereo not drawn), at CK1α, the DC50 was more than 0.025 µM and the “CK1α Ymin” value is “E (E = >25-75% remaining)”. Besides, on GSPT1, the DC50 is less than 0.025 µM and the “GSPT1 Ymin” value is recorded as “F (F = >75-100% remaining)”.
Consider `Cn1cnc(-c2ccc3c(c2)CN(C2CCC(=O)NC2=O)C3=O)c1-c1ccc(C(F)(F)F)cc1` (stereo not drawn), for which, on CK1α, the DC50 is less than 0.025 µM and the “CK1α Ymin” value is “E (E = >25-75% remaining)”. Also, on GSPT1, the DC50 was less than 0.025 µM and the “GSPT1 Ymin” value is on record as “F (F = >75-100% remaining)”.
For the compound `Cn1cnc(-c2ccc3c(c2)CN(C2CCC(=O)NC2=O)C3=O)c1-c1ccc(-c2cccnc2)cc1` (stereo not drawn), on CK1α, the DC50 is less than 0.025 µM and the “CK1α Ymin” value was “C (C = 0-10% remaining)”. Further, at GSPT1, the DC50 was less than 0.025 µM and the “GSPT1 Ymin” value is “E (E = >25-75% remaining)”.
